Here are results for one compound from paper PMC10906223, “An orally available compound suppresses glucagon hypersecretion and normalizes hyperglycemia in type 1 diabetes” (JCI Insight, 2024).

The data set can be described thus: Microsomal stability assay, CD-1 mouse liver microsomes. It is filed as in vitro ADME. The protocol:
A total of 445 μL of the working solution was transferred into prewarmed incubation plates for treated (T60) and control (NCF60) measurements. After preincubation (10 minutes at 37°C with constant shaking), 54 μL was transferred to the blank plate, followed by 6 μL of NADPH and 180 μL quenching solution. In parallel, 5 μL of WCDD301 (100 μM) was added into incubation plates (T60 and NCF60) containing microsomes and mixed thoroughly (3 times). For the NCF60 plate, 50 μL of buffer was added, mixed (thoroughly, 3 times), shaken, and incubated at 37°C for 60 minutes. In the quenching plate T0, quenching solution (180 μL) and NADPH cofactor (6 μL) were added. For T60 plate, 54 μL of the mixture was placed into the quenching plate (for T0 point), followed by adding 44 μL NADPH cofactor with shaking incubation at 37°C for 60 minutes. Quenching solution (180 μL) was added to quenching plates at 5, 15, 30, 45, and 60 minutes, and 60 μL of sample was transferred from T60 plate per time point to the quenching plates. For the NCF60 plates, 60 μL sample from the NCF60 incubation plate was transferred to the quenching plate (containing quenching solution) at the 60-minute time point. After plates were shaken for 10 minutes and centrifuged (1,750g, 20 minutes at 4°C), 80 μL of the supernatant was transferred into 240 μL HPLC water for LC-MS/MS analysis. […]

The term half-life denotes the time in which the quantity being followed falls by half. On to `O=C(O)Cc1ccccc1Nc1c(Cl)cccc1Cl` [Diclofenac], for which the half-life at 1 µM came out at 47.5 min.
